As a reminder, the Km is the substrate concentration at which the rate is half of its maximum. For orientation: kcat means the number of substrate molecules converted per active site and unit of time at saturation.

This note sets out measurements from publication PMC4410396 (Acta Naturae, 2015).

For one data set, the system named is O=CO. Briefly: purified protein. Particulars: saturating NAD+ (>15 KM), 0.1 M sodium phosphate pH 7.0, 30°C.
In data set [1] the test system is T1, NC(=O)c1ccc[n+]([C@@H]2O[C@H](COP(=O)(O)OP(=O)(O)OC[C@H]3O[C@@H](n4cnc5c(N)ncnc54)[C@H](O)[C@@H]3O)[C@@H](O)[C@H]2O)c1.
T1 construct: recombinant, plasmid pPseFDH8, E. coli BL21(DE3)/pLysS; no tag mentioned; Phenyl Sepharose and Sephadex G-25
Briefly: purified protein. The format is biochemical, Pseudomonas sp. 101. Particulars: saturating formate (>15 KM), 0.1 M sodium phosphate pH 7.0, 30°C.

On to PseFDH (Pseudomonas sp. 101; A199G), for which the Michaelis constant (Km) with O=CO is recorded as 7.5 ± 0.2 mM. The kcat (in the data set with O=CO; in data set [1]) was 7.3 ± 0.1 s⁻¹ each time.
For the substance “PseFDH (Pseudomonas sp. 101; A199G/D222S)”, in the data set on O=CO, the Km came out at 53 ± 1 mM and the kcat stood at 5.0 ± 0.2 s⁻¹.
For the substance PseFDH (Pseudomonas sp. 101; D222S), in the data set with O=CO, the Michaelis constant (Km) came out at 32 ± 2 mM and the turnover number (kcat) came out at 5.0 ± 0.3 s⁻¹.
